Laboratory results as given in PubChem BioAssay AID720709 (National Center for Advancing Translational Sciences (NCATS), 2013).
The list shows a part of the results, in another mix than the full data. Results filed as inconclusive are left out. Some salts or complexes appear as unconnected parts, following the source record. The source made the active and inactive calls. Calls follow the shape of the dose curve; as a rule, active = well fitted inhibition curve with a large enough effect; inconclusive = small, poorly fitted or top-dose-only effect; inactive = no such curve, though single readings can be large or run the other way.

Chains of the proteins cited; added tags and fusions are not shown.
UniProt O95398, whole entry: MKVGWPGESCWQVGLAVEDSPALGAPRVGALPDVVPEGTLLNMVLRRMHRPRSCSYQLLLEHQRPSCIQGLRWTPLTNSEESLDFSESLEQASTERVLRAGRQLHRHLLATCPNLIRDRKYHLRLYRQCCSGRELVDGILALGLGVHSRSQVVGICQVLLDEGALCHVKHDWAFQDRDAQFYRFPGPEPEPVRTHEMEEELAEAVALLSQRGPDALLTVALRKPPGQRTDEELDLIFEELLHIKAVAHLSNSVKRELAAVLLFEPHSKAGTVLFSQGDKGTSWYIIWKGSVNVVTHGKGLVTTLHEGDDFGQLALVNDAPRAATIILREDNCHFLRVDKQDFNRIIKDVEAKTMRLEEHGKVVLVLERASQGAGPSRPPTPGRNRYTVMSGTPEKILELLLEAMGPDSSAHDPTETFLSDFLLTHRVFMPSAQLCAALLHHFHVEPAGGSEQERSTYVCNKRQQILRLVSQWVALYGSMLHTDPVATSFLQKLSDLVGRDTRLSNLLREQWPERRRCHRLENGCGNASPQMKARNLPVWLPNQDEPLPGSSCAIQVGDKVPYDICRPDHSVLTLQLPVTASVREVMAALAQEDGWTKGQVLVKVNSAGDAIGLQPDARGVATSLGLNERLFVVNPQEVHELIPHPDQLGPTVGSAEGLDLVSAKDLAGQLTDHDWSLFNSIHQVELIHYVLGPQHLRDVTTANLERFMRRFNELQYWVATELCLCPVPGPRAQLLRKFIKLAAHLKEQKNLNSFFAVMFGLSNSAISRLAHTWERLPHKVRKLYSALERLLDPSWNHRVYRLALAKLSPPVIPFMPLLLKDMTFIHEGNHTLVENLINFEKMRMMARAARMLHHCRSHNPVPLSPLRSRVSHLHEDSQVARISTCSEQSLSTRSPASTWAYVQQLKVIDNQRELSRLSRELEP

target: Rap guanine nucleotide exchange factor 3 (Homo sapiens) (UniProt O95398); assay: qHTS for Antagonist of cAMP-regulated guanine nucleotide exchange factor 3 (EPAC1): primary screen; conditions: EPAC1 GEF assay, Rap1b-BODIPY-GDP exchange fluorescence; at 115 µM (top of the series); also: nearly all actives have a fitted effect of over 50% in size
Excerpt: In multi-cellular eukaryotic organisms, the effects of cAMP are transduced by two ubiquitously-expressed intracellular cAMP receptors, the classic protein kinase A/cAMP-dependent protein kinase (PKA/cAPK) and the more recently discovered exchange protein directly activated by cAMP/cAMP-regulated guanine nucleotide exchange factor (EPAC/cAMP-GEF). Both PKA and EPAC are ubiquitously expressed in all tissues, and an increase in intracellular cAMP levels will lead to the activation of both PKA and EPAC. Therefore, careful dissections of the individual role and relative contribution of EPAC and PKA within the overall cAMP signaling in various model systems are critical for further elucidating the mechanism of cAMP signaling. To date no EPAC-specific antagonists and agonist, as well as isoform-specific agonists have been reported, and developing EPAC-specific pharmacological probes to determine the physiological functions that EPAC play in the overall cAMP-mediated signaling remains a major challenge within the research field. Furthermore, identified regulators of EPAC may lead to new mechanism-based therapeutic strategies specifically targeting the EPAC / cAMP-signaling components as EPAC has been implicated to play important roles in major human pathological conditions such as diabetes, heart disease, and cancer. This qHTS will be used to screen the Molecular Libraries Small Molecule Repository (MLSMR) as a concentration-titration series using the NCGC unique quantitative screening (qHTS) platform to find inhibitors for EPAC1. In addition, this assay will also be used as a counterscreen for the EPAC2 qHTS. This fluorescent based assay is developed and validated for EPAC1 that measures exchange using EPAC effector Rap1 complex with BODIPY-GDP, a GDP analog with a tethered fluorophores. Inhibitors are identified by monitoring the change in fluorescence signal as the exchanged free BODIPY-GDP has a reduced fluorescence compared to Rap1-bound BODIPY-GDP. Decrease in signal (inhibition) is the desired outcome for the EPAC1 antagonist while no activity in this assay is desired for the EPAC2 antagonist counterscreen. de Rooij, J., Zwartkruis, F. J., Verheijen, M. H., Cool, R. H., Nijman, S. M., Wittinghofer, A., and Bos, J.L. (1998) Nature 396, 474-477 [2] Kawasaki, H., Springett, G. M., Mochizuki, N., Toki, S., Nakaya, M., Matsuda, M., Housman, D. E., and Graybiel, A. M. (1998) Science 282, 2275-2279 NIH Chemical Genomics Center [NCGC] NIH Molecular Libraries Probe Centers Network [MLPCN] MLPCN Grant: NS066510 Assay Submitter (PI): Xiaodong Cheng, The University of Texas, Medical Branch
Briefly, three uL of reagents (100 nM EPAC1, 250 nM RAP1B-BODIPY-GDP, 50 uM GDP) were dispensed into a 1536-well Greiner black solid-bottom medium binding assay plate. Controls and test compounds (23 nL) were transferred to the plate via a Kalypsys pin tool equipped with a 1536-pin array. The plates were centrifuged at 1,000 rpm for 15 seconds followed by 5 minute incubation at room temperature. The assay plates were read at 5 minute intervals for 30 minutes in the ViewLux plate reader using 480nm excitation and 540nm emission filters. The results were normalized to the […] positive control ATA and DMSO.

| Structure (SMILES) | activity change, negative = inhibition |
| --- | --- |
| CN1CCC(Nc2ccc(Cl)cc2)CC1 | inactive: -3.08% |
| COc1cc(OC)cc(C(=O)NCC2(N3CCOCC3)CCCCC2)c1 | inactive: 2.87% |
| COc1cccc(C(c2nnnn2C2CCCC2)N2CCC(n3c(=O)[nH]c4ccccc43)CC2)c1OC (centres undefined) | inactive: -2.71% |
| COc1cccc(C(=O)N(c2cc(C)cc(C)c2)C2CCN(C(=O)OC(C)(C)C)CC2)c1 | inactive: 4.64% |
| CCC(CO)(C(=O)OC1CN2CCC1CC2)c1ccccc1 (centres undefined) | inactive: -10.7% |
| CC(C)(C)OC(=O)N1CCC(Nc2ccccc2)CC1 | inactive: -12.3% |
| O=C(O)C1(Nc2ccccc2)CCN(Cc2ccccc2)CC1 | inactive: -5.13% |
| NN(c1ccccc1)C1CCN(CCc2ccccc2)CC1 | inactive: -0.143% |
| CCCOc1ccc(C(=O)NCC2(N(C)C)CCCCC2)cc1 | inactive: 14.9% |
| O=c1[nH]c2ccccc2n1C1CCN(C(c2cc3ccccc3o2)c2nnnn2C2CCCC2)CC1 (centres undefined) | inactive: -18.7% |
| CCOc1ncccc1C(=O)NCC1(N2CCOCC2)CCCCC1 | inactive: 14% |
| CN1CCC(Nc2ccc(F)c(Cl)c2)CC1 | inactive: -1.11% |
| O=C(NCC1(N2CCCCC2)CCCCC1)c1ccco1 | inactive: 22.4% |
| Cn1c(=O)[nH]cc(N(CCCl)CCCl)c1=O | inactive: -13.9% |
| CN(C)c1ccc(C(=O)NCC2(N3CCCCC3)CCCCC2)cc1 | inactive: -5.21% |
| Cc1ccccc1NC1(C#N)CCN(Cc2ccccc2)CC1 | inactive: -7.01% |
| CC(C)(C)n1nnnc1C(c1ccnc2ccccc12)N1CCC(n2c(=O)[nH]c3ccccc32)CC1 (centres undefined) | inactive: -7.74% |
| CCN1CCC(Nc2cccc(F)c2)CC1 | inactive: 7.25% |
| COc1ccc(C(c2nnnn2C2CCCCC2)N2CCC(n3c(=O)[nH]c4ccccc43)CC2)cc1 (centres undefined) | inactive: 1.39% |
| Cc1ccc(C(=O)NCC2(N3CCCCC3)CCCCC2)o1 | inactive: -18.7% |
| Cc1ccc(Nc2c([N+](=O)[O-])cc([N+](=O)[O-])cc2[N+](=O)[O-])cc1 | inactive: -3.61% |
| Fc1ccccc1NC1CCN(Cc2ccccc2)CC1 | inactive: 11.9% |
| Cc1ccc(NC2(C#N)CCN(Cc3ccccc3)CC2)cc1 | inactive: -1.7% |

| Structure (SMILES) | activity change, negative = inhibition |
| --- | --- |
| CC(=O)N(c1ccccc1)C1CCNCC1 | inactive: -14.6% |
| COc1cccc(C(c2nnnn2C2CCCCC2)N2CCC(n3c(=O)[nH]c4ccccc43)CC2)c1OC (centres undefined) | inactive: -17% |
| CCC(c1nnnn1C1CCCCC1)N1CCC(n2c(=O)[nH]c3ccccc32)CC1 (centres undefined) | inactive: -23.4% |
| O=c1[nH]c2ccccc2n1C1CCN(C(c2ccnc3ccccc23)c2nnnn2C2CCCCC2)CC1 (centres undefined) | inactive: -19.5% |
| COc1cc(OC)cc(C(=O)NCC2(N3CCCCC3)CCCCC2)c1 | inactive: -5.81% |
| CC(C)(C)n1nnnc1C(c1cccc2ccccc12)N1CCC(n2c(=O)[nH]c3ccccc32)CC1 (centres undefined) | inactive: -7.05% |
| CN(C)C1(CNC(=O)c2cccc(C#N)c2)CCCCC1 | inactive: -19.3% |
| c1ccc(CN2CCC(Nc3ccccc3)CC2)cc1 | inactive: 20.5% |
| Cc1cc(N(CCCl)CCCl)ccc1C=O | inactive: 6.11% |
| O=c1[nH]c2ccccc2n1C1CCN(C(c2ccccc2)c2nnnn2C2CCCC2)CC1 (centres undefined) | inactive: -13.9% |
| CCCN1CCC(Nc2cc(OC)cc(OC)c2)CC1 | inactive: 3% |
| CCOC(=O)C(CC)C1=NC(C)(C)Cc2ccccc21.O=[N+]([O-])c1cc([N+](=O)[O-])c(O)c([N+](=O)[O-])c1 (centres undefined) | inactive: 7.9% |
| N#Cc1ccc(C(=O)NCC2(N3CCCCC3)CCCCC2)cc1 | inactive: -21.6% |
| CC(C)(C)OC(=O)N1CCC(N(C(=O)c2ccccc2)c2ccc(Cl)cc2)CC1 | inactive: -16.7% |
| O=C(OC1CN2CCC1CC2)C1c2ccccc2C=Cc2ccccc21 (centres undefined) | inactive: 3.74% |
| CCc1cc(C(=O)NCC2(N3CCCCC3)CCCCC2)sc1C | inactive: 17% |
| O=c1[nH]c2ccccc2n1C1CCN(C(c2cccs2)c2nnnn2C2CCCC2)CC1 (centres undefined) | inactive: -0.26% |
| O=C(O)c1cccc(Nc2c([N+](=O)[O-])cc([N+](=O)[O-])cc2[N+](=O)[O-])c1 | inactive: -5.01% |
| CCCCn1nnnc1C(c1cccc(OC)c1OC)N1CCC(n2c(=O)[nH]c3ccccc32)CC1 (centres undefined) | inactive: -7.83% |
| COc1cccc(C(c2nnnn2C(C)(C)C)N2CCC(n3c(=O)[nH]c4ccccc43)CC2)c1OC (centres undefined) | inactive: -18.8% |
| CCOC(=O)N1CCC(Nc2ccc(C)cc2)CC1 | inactive: -5.09% |
| N/C(=N\O)c1c(N)no[n+]1[O-] | inactive: 17.1% |
| O=c1[nH]c2ccccc2n1C1CCN(C(c2cccs2)c2nnnn2C2CCCCC2)CC1 (centres undefined) | inactive: -2.3% |

| Structure (SMILES) | activity change, negative = inhibition |
| --- | --- |
| COc1ccc(C(=O)NCC2(N3CCOCC3)CCCCC2)cc1OC | inactive: -2% |
| O=c1[nH]c2ccccc2n1C1CCN(C(c2ccnc3ccccc23)c2nnnn2C2CCCC2)CC1 (centres undefined) | inactive: -10.5% |
| CCCCn1nnnc1C(c1ccccc1)N1CCC(n2c(=O)[nH]c3ccccc32)CC1 (centres undefined) | inactive: -9.92% |
| COc1cc(C(=O)NCC2(N3CCOCC3)CCCCC2)cc(OC)c1C | inactive: -7.39% |
| O=C(NCC1(N2CCOCC2)CCCCC1)c1cc(Br)ccc1Cl | inactive: 3.12% |
| O=[N+]([O-])c1cc([N+](=O)[O-])c(Nc2ccc(Cl)cc2)c([N+](=O)[O-])c1 | inactive: -15.7% |
| COc1ccc(C(c2nnnn2C2CCCC2)N2CCC(n3c(=O)[nH]c4ccccc43)CC2)cc1 (centres undefined) | inactive: 7.04% |
| Cc1ccc(C(=O)NCC2(N(C)C)CCCCC2)o1 | inactive: 5.44% |
| CCCOc1ccc(C(=O)NCC2(N(C)C)CCCCC2)cc1OC | inactive: -16.4% |
| O=C(OC1CN2CCC1CC2)c1ccc([N+](=O)[O-])cc1 (centres undefined) | inactive: -1.78% |
| COc1ccc2c(c1O)-c1c(O)c(OC)cc3c1[C@H](C2)[N+](C)(C)CC3.O=[N+]([O-])c1cc([N+](=O)[O-])c([O-])c([N+](=O)[O-])c1[O-] | inactive: 4.43% |
| O=C(NCC1(N2CCCCC2)CCCCC1)c1cncc(Br)c1 | inactive: 5.79% |
| CN1CCC(Nc2cccc(F)c2)CC1 | inactive: -5.56% |
| COc1cc(OC)c(C(=O)NCC2(N(C)C)CCCCC2)cc1OC | inactive: 18.6% |
| O=C(NCC1(N2CCOCC2)CCCCC1)c1cc(F)c(F)cc1Cl | inactive: -3.47% |
| CCC(c1nnnn1C(C)(C)C)N1CCC(n2c(=O)[nH]c3ccccc32)CC1 (centres undefined) | inactive: -13.9% |
| CCN(CC)CCCNc1ccccc1[N+](=O)[O-].O=[N+]([O-])c1cc([N+](=O)[O-])c(O)c([N+](=O)[O-])c1 | inactive: 9.27% |
| CCCCn1nnnc1C(c1ccnc2ccccc12)N1CCC(n2c(=O)[nH]c3ccccc32)CC1 (centres undefined) | inactive: -1.28% |
| CCCCn1nnnc1C(c1ccccc1OC(F)(F)F)N1CCC(n2c(=O)[nH]c3ccccc32)CC1 (centres undefined) | inactive: -17.9% |
| CC(C)c1ccc(NC2CCN(C(=O)OC(C)(C)C)CC2)cc1 | inactive: -27.6% |
| COc1ccc(CN(CCCl)CCCl)cc1Cl | inactive: 2.56% |
| O=[N+]([O-])c1cc([N+](=O)[O-])c(OC2CCCCC2O)c([N+](=O)[O-])c1 (centres undefined) | inactive: -10.7% |
| CN(C)c1cccc(C(=O)NCC2(N3CCCCC3)CCCCC2)c1 | inactive: 8.94% |

| Structure (SMILES) | activity change, negative = inhibition |
| --- | --- |
| COc1cc(C(=O)NCC2(N3CCCCC3)CCCCC2)ccc1OC(F)F | inactive: -7.08% |
| O=C(NCC1(N2CCOCC2)CCCCC1)c1cc(=O)[nH]c2ccccc12 | inactive: -6.6% |
| CCCCn1nnnc1C(c1cccc2ccccc12)N1CCC(n2c(=O)[nH]c3ccccc32)CC1 (centres undefined) | inactive: -1.51% |
| CN1CCN(CCOC(=O)C(O)(c2ccccc2)c2ccccc2)CC1 | inactive: -3.34% |
| CC(C)c1ccc(C(=O)NCC2(N3CCOCC3)CCCCC2)cc1 | inactive: 4.33% |
| COc1ccc(NC2CCN(C(=O)OC(C)(C)C)CC2)cc1 | inactive: -16.1% |
| O=[N+]([O-])c1cc([N+](=O)[O-])c(NCC2CCS(=O)(=O)C2)c([N+](=O)[O-])c1 (centres undefined) | inactive: 9.82% |
| O=C(NCC1(N2CCCCC2)CCCCC1)c1cccc(C(F)(F)F)c1 | inactive: 9.72% |
| CCN1CCC(Nc2ccc(Cl)cc2)CC1 | inactive: 7.7% |
| N#CC1(Nc2ccccc2)CCN(CCc2ccccc2)CC1 | inactive: 10.1% |
| O=c1[nH]c2ccccc2n1C1CCN(C(c2ccccc2OC(F)(F)F)c2nnnn2C2CCCC2)CC1 (centres undefined) | inactive: -17% |
| O=C(NCC1(N2CCCCC2)CCCCC1)c1cccc([N+](=O)[O-])c1 | inactive: 7.93% |
| CSc1ccc(C(=O)NCC2(N3CCOCC3)CCCCC2)cc1 | inactive: -2.11% |
| CC(C)(C)n1nnnc1C(c1ccccc1OC(F)(F)F)N1CCC(n2c(=O)[nH]c3ccccc32)CC1 (centres undefined) | inactive: -21.4% |
| O=C(NCC1(N2CCCCC2)CCCCC1)c1ccc(OC(F)F)cc1 | inactive: 2.6% |
| COc1cc(C(=O)NCC2(N(C)C)CCCCC2)ccc1OC(F)F | inactive: 1.45% |
| CCOC(=O)N1CCC(Nc2cccc(C)c2)CC1 | inactive: -7.81% |
| O=c1[nH]c2ccccc2n1C1CCN(C(c2cccc3ccccc23)c2nnnn2C2CCCC2)CC1 (centres undefined) | inactive: -0.978% |
| O=c1[nH]c2ccccc2n1C1CCN(C(c2ccccc2)c2nnnn2C2CCCCC2)CC1 (centres undefined) | inactive: -14.3% |
| O=C(NCC1(N2CCCCC2)CCCCC1)c1ccc(F)cc1 | inactive: 7.55% |
